Inhibition data for one molecule are collected here from PubChem BioAssay AID588832 (Broad Institute, 2011).

Usually inhibition stands for the relative decrease from the control value, in per cent.

The list shows a part of the results, in another mix than the full data. Active and inactive are the calls of the source. No rule for the calls is given here.

This assay deals with hedgehog, isoform A (Drosophila melanogaster). Kind of assay: Hh protein inhibition, biochemical readout – plate reader, single concentration, primary screen (AID 588832).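 Also: 0% = neutral control wells and 100% = positive control wells.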 To be noted: Biochemical plate reader assay, at 30.3 µM, hits give high values.
As to `O=C1CCN(Cc2ccccc2)CC1`, the inhibition is inactive: 1.61%.
